Literature values in patent publication US7884189B2, “Carboxyltransferase domain of acetyl-CoA carboxylase” (The Trustees of Columbia University in the City of new York, priority 2003, dated 2011).

Molecular target: mammalian ACC1 (Rattus norvegicus, UniProt P11497)
Conditions: cited from earlier work

Question: With `O=C(c1c2ccccc2cc2ccccc12)N1CCC(N2CCC[C@@H](C(=O)N3CCOCC3)C2)CC1` [CP-640186] as the compound, how does the IC50 read?
Answer: ~0.055 µM
